The text below walks through data of ChEMBL document CHEMBL4400523, “Synthesis of novel pyrido[1,2-c]pyrimidine derivatives with rigidized tryptamine moiety as potential SSRI and 5-HT1A receptor ligands” (Eur J Med Chem, 2019).

Assay [1] is filed under the species Mus musculus. The following applies: CD-1, 0.1 mg/kg.
Assay [2] is filed under the species Mus musculus. The settings on record: CD-1.
Assay [3] is filed under the species Mus musculus. The settings on record: CD-1, 0.1 mg/kg. This is another data set of the same source.
The species named for assay [4] is Mus musculus. The settings on record: CD-1, 0.1 mg/kg. This is another data set of the same source.
The species named for assay [5] is Mus musculus. The settings on record: CD-1, 5 mg/kg.
Assay [6] is filed under the species Mus musculus. The following applies: CD-1, 5 mg/kg. This is another data set of the same source.

As for `COc1ccccc1N1CCN(CCN(C(=O)C2CCCCC2)c2ccccn2)CC1`, the deltaT in the assay filed under Mus musculus [1] is 0.1 °C; in the assay listed under Mus musculus [2], -0.1 °C; in the assay filed under Mus musculus [3], 0.1 °C; in the assay listed under Mus musculus [4] it was -0.2 °C.

With `CCCN(CCC)C1CCc2cccc(O)c2C1` (stereo unspecified), the deltaT in the assay listed under Mus musculus [5] was -0.1 °C; in the assay listed under Mus musculus [6] it was 0.3 °C.
